{"source": "patent US20220409727A1", "about": "“Metal Complexes Bearing Bisstyryl-Bipyridine Ligand and Their Use as Photosensitizer Agent in One and Two-Photon Photodynamic Therapy” (Paris Sciences et Lettres, priority 2019, published 2022)", "assay": "Luminescence lifetime measurements", "type": "physicochemical", "conditions": "air saturated CH3CN, excitation at 355 nm", "method": "For the determination of the lifetimes, the samples were prepared in an air saturated and in a degassed CH3CN solution with an absorbance of 0.2 at 355 nm. This solution was irradiated in fluorescence quartz cuvettes (width 1 cm) using a NT342B Nd-YAG pumped optical parametric oscillator (Ekspla) at 355 nm. The emission signal was focused and collected at right angle to the excitation pathway and directed to a Princeton Instruments Acton SP-2300i monochromator. As a detector a R928 photomultiplier tube (Hamamatsu) has been used."}
{"substance": "[Ru(bipy)2((E,E′)-4,4′-Bis[p-(N,N-methoxy)styryl]-2,2′-bipyridine)][PF6]2 [Compound 7]", "values": [{"measurement": "τ/ns air (Lifetime)", "result": 96, "unit": "ns"}]}
